Assay results taken from US7427590B2, “Neurothrophic components of the ADNF I complex” (The United States of America as represented by the …, priority 2001, dated 2008).

Tested on: dissociated cerebral cortical cultures
Settings: TTX-treated cerebral cortical cultures

NPSGTDWLNTNNQANPFN
Neuronal survival with synthesized peptide: increase in neuronal survival
